Source: patent US7977481B2, “Pyrimidinyl-thiophene kinase modulators” (SGX Pharmaceuticals, Inc., priority 2005, dated 2011)

Protein sequences, listed by entry. Tags and fused reporters are not part of them.
UniProt O14965, whole entry: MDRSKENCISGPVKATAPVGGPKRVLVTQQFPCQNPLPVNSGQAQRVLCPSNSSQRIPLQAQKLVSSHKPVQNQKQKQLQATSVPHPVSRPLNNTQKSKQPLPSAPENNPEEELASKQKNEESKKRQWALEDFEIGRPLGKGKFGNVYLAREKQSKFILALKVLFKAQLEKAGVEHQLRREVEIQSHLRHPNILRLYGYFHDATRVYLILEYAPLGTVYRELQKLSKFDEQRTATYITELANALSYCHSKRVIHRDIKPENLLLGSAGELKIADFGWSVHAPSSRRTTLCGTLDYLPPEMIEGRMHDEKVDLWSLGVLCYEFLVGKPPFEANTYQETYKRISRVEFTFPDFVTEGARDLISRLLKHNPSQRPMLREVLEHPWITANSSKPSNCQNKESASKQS

Target: Autophosphorylated AurA kinase (Homo sapiens, UniProt O14965)
Experiment: AurA Luminescence-Based ATP Depletion Enzyme Assay
Conditions: read-out: AurA enzyme IC50; 10 μM ATP
Method: AurA Luminescence-Based ATP Depletion Enzyme Assay
Materials: Kemptide peptide substrate=LRRASLG (Biopeptide, San Diego, Calif.), ATP (Sigma Cat#A-3377, FW=551), HEPES buffer, pH 7.5, 10% Brij 35 (Calbiochem Cat#203728), MgCl2, Staurosporine (Streptomyces sp. Sigma Cat#85660-1MG), white Costar 384-well flat-bottom plate (VWR Cat#29444-088), Autophosphorylated AurA kinase (see below), Kinase-Glo™ (Promega Cat#V6712).
Stock Solutions: 10 mM Kemptide peptide (7.72 mg/ml in water), stored at −20° C.; 100 mM HEPES buffer+0.015% Brij 35, pH 7.5 (5 ml 1M HEPES stock+75 μL 10% Brij 35+45 ml miliQH2O); 10 mM ATP (5.51 mg/ml in dH2O) stored at −20° C. (diluted 50 μl into total of 10 ml miliQH2O daily=50 μM ATP working stock); 100 mM MgCl2; 200 μM Staurosporine, 2× Kinase-Glo™ reagent (made fresh or stored at −20° C.). […]
Standard Assay Setup for 384-well format (20 μl kinase reaction, 40 μl detection reaction): 10 mM MgCl2; 0.2 mM Kemptide peptide; 1 μl test compound (in DMSO); 0.3 μg/ml Autophosphorylated AurA kinase; 10 μM ATP; 100 mM HEPES+0.015% Brij buffer. […] Kinase reactions were incubated at 21° C. for 45 min, then 20 μl of Kinase-Glo™ reagent were added to each well to quench the kinase reaction and initiate the luminescence reaction. After a 20 min incubation at 21° C., the luminescence was detected in a plate-reading luminometer. […]

IC50: < 0.1 µM
SMILES: COc1ccc(Nc2nccc(-c3ccc(S(=O)(=O)N4CC=CC4)s3)n2)cc1OC
